Laboratory results taken from PMC11061834 (Journal of Natural Products, 2024).

The compounds below were run on 3T3-L1 cells (assay: Antiadipogenic activity: inhibition of lipid accumulation by Nile Red staining). Settings: 5 μM; P < 0.001.
Type: cell-based

| Structure (SMILES) | antiadipogenic activity compared with lovastatin |
| --- | --- |
| C=C(c1ccc(O)c(Oc2cc3c(cc2OC)CCN(C)[C@@H]3Cc2ccc(OC)cc2)c1)[C@H]1c2cc(O)c(OC)cc2CCN1C [Compound 5, 1R,1′S-neoisoliensinine A] | significantly higher |
| COc1ccc(C[C@@H]2c3cc(Oc4cc(C[C@H]5c6cc(OC)c(OC)cc6CCN5C)ccc4O)c(OC)cc3CCN2C)cc1 [Compound 8, 1′-epi-neferine] | significantly higher |
| C=C(c1ccc(O)c(Oc2cc3c(cc2OC)CCN(C)[C@@H]3Cc2ccc(OC)cc2)c1)[C@H]1c2cc(OC)c(OC)cc2CCN1C [Compound 3, 1R,1′S-neoneferine A] | significantly higher |
